The results in this text go back to patent US20120129872A1, “FUSED HETEROARYL INHIBITORS OF PRO-MATRIX METALLOPROTEINASE ACTIVATION” (priority 2010, published 2012).

Amino acid sequences for entries named in this document (tags omitted). Chains listed by the source or under a name are the forms on record and can include a tag or linker. Residues count along the entry.
UniProt P14780, 20-707 R574P limits assumed: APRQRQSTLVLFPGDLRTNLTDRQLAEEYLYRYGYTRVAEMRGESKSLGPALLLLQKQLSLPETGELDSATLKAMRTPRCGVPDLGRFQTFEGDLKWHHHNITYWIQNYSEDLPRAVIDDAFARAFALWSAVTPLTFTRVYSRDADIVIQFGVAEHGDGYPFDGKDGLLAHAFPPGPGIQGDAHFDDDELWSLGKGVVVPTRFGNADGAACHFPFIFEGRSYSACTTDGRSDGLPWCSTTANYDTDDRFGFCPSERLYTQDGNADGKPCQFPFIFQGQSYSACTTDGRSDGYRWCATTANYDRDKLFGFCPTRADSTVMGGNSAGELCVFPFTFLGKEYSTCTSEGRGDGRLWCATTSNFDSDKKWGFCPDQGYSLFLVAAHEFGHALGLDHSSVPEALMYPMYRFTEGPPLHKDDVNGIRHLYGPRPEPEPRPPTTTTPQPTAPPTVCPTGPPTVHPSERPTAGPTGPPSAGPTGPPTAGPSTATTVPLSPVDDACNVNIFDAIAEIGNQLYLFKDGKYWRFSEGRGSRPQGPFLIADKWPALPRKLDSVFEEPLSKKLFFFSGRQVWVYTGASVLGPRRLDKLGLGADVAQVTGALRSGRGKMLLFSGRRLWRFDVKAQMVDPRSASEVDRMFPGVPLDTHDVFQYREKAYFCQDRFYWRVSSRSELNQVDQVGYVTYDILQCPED
UniProt P14780, 20-444 with tags or gaps DEL216-390 limits assumed: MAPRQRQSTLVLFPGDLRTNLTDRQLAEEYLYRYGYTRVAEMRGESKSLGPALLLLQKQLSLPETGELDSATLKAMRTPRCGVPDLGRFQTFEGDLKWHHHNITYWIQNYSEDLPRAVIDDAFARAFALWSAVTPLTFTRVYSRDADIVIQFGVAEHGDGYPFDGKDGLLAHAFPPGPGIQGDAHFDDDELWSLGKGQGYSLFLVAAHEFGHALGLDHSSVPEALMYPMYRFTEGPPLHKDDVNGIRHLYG
UniProt P14780, 67-444 with tags or gaps DEL216-390 limits assumed: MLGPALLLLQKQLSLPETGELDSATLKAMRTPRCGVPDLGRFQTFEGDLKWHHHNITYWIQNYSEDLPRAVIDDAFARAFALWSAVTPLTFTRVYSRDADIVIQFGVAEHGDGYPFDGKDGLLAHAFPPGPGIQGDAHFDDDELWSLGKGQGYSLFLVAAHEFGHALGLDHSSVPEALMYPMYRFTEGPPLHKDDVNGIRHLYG

The target in assay [1] is proMMP9(67-444;ΔFnII) (SEQ ID NO:5) (Homo sapiens, UniProt P14780, DEL216-390). Briefly: ThermoFluor binding assay with proMMP9(67-444;ΔFnII). The note with it: read-out: proMMP9(67-444;ΔFnII) (SEQ ID NO: 5) binding. As to the method: (§1) The ThermoFluor® (TF) assay is a 384-well plate-based binding assay that measures thermal stability of proteins (Biomol Screen 2001, 6, 429-40; Biochemistry 2005, 44, 5258-66). The experiments were carried out using instruments available from Johnson & Johnson Pharmaceutical Research & Development, LLC. TF dye used in all experiments was […] (1,8-ANS) (Invitrogen: A-47).
(§2) Compounds were arranged in a pre-dispensed plate (Greiner Bio-one: 781280), wherein compounds were serially diluted in 100% DMSO across 11 columns within a series. Columns 12 and 24 were used as DMSO reference and contained no compound. […]
(§3) Assay plates were robotically loaded onto a thermostatically controlled PCR-type thermal block and then heated from 40 to 90° C. at a ramp-rate of 1° C./min for all experiments. Fluorescence was measured by continuous illumination with UV light (Hamamatsu LC6) supplied via fiber optics and filtered through a band-pass filter (380-400 nm; >60D cutoff). Fluorescence emission of the entire 384-well plate was detected by measuring light intensity using a CCD camera (Sensys, Roper Scientific) filtered to detect 500±25 nm, resulting in simultaneous and independent readings of all 384 wells. […]
(In DSF a fluorescence change marks the thermal transition of the protein.)

In assay [2] the target is full-length proMMP9(1-707) (SEQ ID NO:1), activation by catalytic MMP3 (Homo sapiens, UniProt P14780, R574P). As to the kind of experiment: proMMP9/MMP3 P126 Activation Assay. The note with it: read-out: proMMP9/MMP3 P126 Activation Assay, IC50. Here is the method:
proMMP9/MMP3 P126 Activation Assay
Compounds were assessed for inhibition of proMMP9 activation by catalytic MMP3, MMP3(100-265) (SEQ ID NO:8) using full-length proMMP9(1-707) (SEQ ID NO:1) purified from HEK293 cells and a peptide (Mca-PLGL-Dpa-AR-NH2, BioMol P-126) that fluoresces upon cleavage by catalytic MMP9. The assay buffer employed was 50 mM Hepes, pH 7.5, 10 mM CaCl2, 0.05% Brij-35. DMSO was included at a final concentration of 2%, arising from the test compound addition. On the day of assay, proMMP9(1-707) (SEQ ID NO:1) purified from HEK293 cells and MMP3(100-265) (SEQ ID NO:8) were diluted to 400 nM in assay buffer. The reaction volume was 50 μL. In 96-well black plates (Costar 3915), 44 μL of assay buffer was mixed with 1.0 μL of test compound, 2.5 μL of 400 nM proMMP9(1-707) (SEQ ID NO:1) purified from HEK293 cells and the reaction was initiated with 2.5 μL of 400 nM MMP3(100-265) (SEQ ID NO:8).The plate was sealed and incubated for 80 min at 37° C. […]

In assay [3] the target is proMMP9(20-445;ΔFnII) (SEQ ID NO:6) (Homo sapiens, UniProt P14780, DEL216-390). As to the kind of experiment: ThermoFluor binding assay with proMMP9(20-445;ΔFnII). The note with it: read-out: proMMP9(20-445;ΔFnII) (SEQ ID NO: 6) binding. Here is the method:
as §1, §2, §3

On to `Cn1cnc2cc(-c3csc(Nc4cc(C(N)=O)ccc4OC(F)(F)F)n3)ccc21`, for which the Kd was 2.6 µM in assay [1] and 0.52 µM in assay [3]. Further, the IC50 in assay [2] came to 0.71 µM.
